Test results from PubChem BioAssay AID504660 (National Center for Advancing Translational Sciences (NCATS), 2011).
Only a part is listed here, and it is no random draw. Activity calls are given as the source filed them. Rule as the data show it: active = activation above about 30%; inactive = the rest.

By UniProt entry, the sequences of proteins in these tests, tags left out.
UniProt P21728, whole entry, looked up: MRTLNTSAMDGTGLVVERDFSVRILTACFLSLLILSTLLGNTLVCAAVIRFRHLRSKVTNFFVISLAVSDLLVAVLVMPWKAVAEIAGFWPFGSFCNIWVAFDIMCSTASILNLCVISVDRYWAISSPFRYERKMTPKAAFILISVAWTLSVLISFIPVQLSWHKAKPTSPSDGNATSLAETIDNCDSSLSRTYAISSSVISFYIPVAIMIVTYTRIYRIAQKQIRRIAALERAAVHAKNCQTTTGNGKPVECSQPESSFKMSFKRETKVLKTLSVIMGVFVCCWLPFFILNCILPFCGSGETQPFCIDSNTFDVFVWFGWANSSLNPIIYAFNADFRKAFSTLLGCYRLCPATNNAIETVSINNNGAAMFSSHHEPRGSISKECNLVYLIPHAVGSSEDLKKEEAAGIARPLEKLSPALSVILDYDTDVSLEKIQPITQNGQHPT

Target: D(1A) dopamine receptor (Homo sapiens) (UniProt P21728)
Test: Allosteric Agonists of the Human D1 Dopamine Receptor: qHTS; also: 0% is about no effect
Conditions: HEK293 T-REx D1 cells, calcium flux, agonist mode; at 2 µM; active compounds read high
Source text: NIH Chemical Genomics Center [NCGC] NIH Molecular Libraries Probe Centers Network [MLPCN] MLPCN Grant: NS064831-01 Assay Submitter (PI): David Sibley Dopamine receptors (DARs) are involved in the etiology and/or therapy of a number of neuropsychiatric and endocrine disorders. For instance, all receptor-based antiparkinsonian drugs work via stimulating the D1 DAR subtype whereas all FDA-approved antipsychotic agents are antagonists of this receptor. […] There are three different types of allosteric modulators that we are seeking, two of which will stimulate or augment receptor signaling, allosteric agonists and potentiators, while the third, allosteric antagonists, will attenuate receptor signaling. The present primary screening assay measures compound agonism by tracking calcium flux in a […], inducible Hek293 Trex D1 cell line.
Freshly passaged cells are plated in 1536 well black, clear bottom plates at a density of 4000 cells/well in 3 ul of complete media containing 1x tetracycline inducer. After an overnight incubation at […] in 5% CO2, cells are loaded with 2 ul of the no wash Calcium Assay Kit (ABD Bioquest) and incubated at room temperature for 30 to 90 minutes. Agonist read: A 10 cycle (1 second/cycle) baseline measurement is taken and then the FDSS online 1536 pintool delivers 23 nl of compound library (as well as dopamine controls) to the plate. The plate is measured for kinetically at 1 cycle/sec for 180 seconds and is considered to be the agonist portion of the assay (eg, compounds which activate a positive calcium response during this portion are flagged as potential agonists). Following the 180 second read, 1 ul of either an EC20 (positive modulation assay) or EC80 (negative modulation assay) is delivered by an onboard pipette head. Measurements are taken kinetically for an additional 180 seconds.

Row | SMILES | activation
1 | O=C(/C=C/c1ccccc1)OC1CN2CCC1CC2 (stereo not given) | inactive: 6.6%
2 | CN(C)C1(CNC(=O)c2ccc(S(C)(=O)=O)cc2)CCCCC1 | inactive: 1.77%
3 | Cc1ccc(C(=O)OC2CN3CCC2CC3)cc1 (stereo not given) | inactive: 0.877%
4 | CC1CCC(C(C)C)C(OP(=O)(Nc2ccccn2)c2ccccc2)C1 (stereo not given) | inactive: 11.4%
5 | Cc1nn(-c2ccccc2)c2c1P(=O)(N1CCOCC1)N(C)C(c1ccccc1)=N2 (stereo not given) | inactive: 2.77%
6 | O=[As](O)(c1ccccc1Br)c1ccccc1Br | inactive: 1.64%
7 | CN(C(=O)Cc1ccc(Cl)c(Cl)c1)[C@@H]1CCCC[C@H]1N1CCCC1 | inactive: 3.34%
8 | CC(C)/C=N\N=C(\N)N[N+](=O)[O-] | inactive: 2.24%
9 | COc1ccccc1CNC(=O)COC(=O)C(O)(c1ccccc1)c1ccccc1 | inactive: 0.904%
10 | CC(C)(C)C(=O)NC(Sc1ncccn1)C(Cl)(Cl)Cl (stereo not given) | inactive: 5.7%
11 | Clc1n[nH]nc1-c1nn[nH][15n]1 | inactive: 2.46%
12 | CCOP(=O)(Nc1ccc(C)cn1)OCC | inactive: 2.68%
13 | CCOP(=O)(NC(=NC(C)c1ccccc1)NC(C)c1ccccc1)OCC (stereo not given) | inactive: 0.544%
14 | CCC1=CC2Cc3nc4ccc(Cl)cc4c(N)c3C(C1)C2 (stereo not given) | inactive: 8.8%
15 | O=P1(Nc2ccccn2)COc2ccccc2OC1 | inactive: 2.66%
16 | CCOP(=O)(Nc1cccc2cccnc12)OCC | inactive: 1.13%
17 | CCC(C)N(CC(C)C)C(=S)SC(NC(C)=O)C(Cl)(Cl)Cl (stereo not given) | inactive: -0.341%
18 | CCOC(=O)c1ccc(NC(=O)C(C)(CCl)SC)cc1 (stereo not given) | inactive: 0.295%
19 | O=C(OC1CN2CCC1CC2)c1cccc([N+](=O)[O-])c1 (stereo not given) | inactive: 0.268%
20 | O=C(Nc1ccncc1[N+](=O)[O-])c1ccc([N+](=O)[O-])cc1[N+](=O)[O-] | inactive: 2.71%
21 | O=C(COc1ccccc1)OC1CN2CCC1CC2 (stereo not given) | inactive: 2.03%
22 | COP1(=S)c2c(C)nn(CCC#N)c2N=C(c2ccc(F)cc2)N1C (stereo not given) | inactive: 2.88%
23 | O=[N+]([O-])c1ccc(Nc2ccc(Oc3ccc([N+](=O)[O-])cc3[N+](=O)[O-])cc2)c([N+](=O)[O-])c1 | inactive: 1.55%

Row | SMILES | activation
24 | Cc1cc(SC(NC=O)C(Cl)(Cl)Cl)ncn1 (stereo not given) | inactive: -1.1%
25 | O=P(Nc1ccccn1)(c1cccc2ccccc12)c1cccc2ccccc12 | inactive: 4.8%
26 | CCOC(=O)Nc1cccc([As](=O)(O)O)c1 | inactive: 1.91%
27 | Cc1cc(SC(NC(=O)c2ccccc2)C(Cl)(Cl)Cl)nc(C(C)C)n1 (stereo not given) | inactive: 1.64%
28 | CCCCOc1ccc(C(=O)NCC2(N3CCCCC3)CCCCC2)cc1OC | inactive: 1.16%
29 | CCOC(=O)Nc1ccc([As](=O)(O)O)c(O)c1 | inactive: 3.04%
30 | O=[N+]([O-])c1cc([N+](=O)[O-])c(-c2ccn[nH]2)s1 | inactive: -0.529%
31 | CCN(CC)C(=S)SC(NC=O)C(Cl)(Cl)Cl (stereo not given) | inactive: 2.08%
32 | CC(C)NC(=O)NP(=O)(Oc1ccccc1)Oc1ccccc1 | inactive: 1.62%
33 | CC(C)c1ccc(OP(=O)(Nc2ccccn2)Oc2ccccc2F)cc1 (stereo not given) | inactive: 2.45%
34 | ClCCSc1nnc(-c2cccnc2)o1 | inactive: 4.27%
35 | Cc1ccc2nc3c(c(C)c2c1)CC(C(Cl)Cl)S3 (stereo not given) | inactive: 1.4%
36 | Cc1ccc(OP(=O)(Nc2ccc([N+](=O)[O-])cn2)Oc2ccc(C)cc2)cc1 | inactive: 3.41%
37 | COc1cc(C(=O)NCC2(N3CCOCC3)CCCCC2)ccc1OCC(C)C | inactive: -0.435%
38 | C[As](=O)(O)c1cccc(C(=O)O)c1 | inactive: 5.17%
39 | O=[As](O)(c1ccc(O)cc1)c1ccccc1O | inactive: 2.06%
40 | COc1ccc(N/C(=N/P(=O)(N2CCOCC2)N2CCOCC2)N2CCOCC2)cc1 | inactive: 2.71%
41 | COc1cc(I)ccc1[As](=O)(O)O | inactive: 1.07%
42 | COc1ccc2nc(NP(=O)(c3ccccc3)c3ccccc3)sc2c1 | inactive: 2.12%
43 | Cc1cc(=O)[nH]c(N[N+](=O)[O-])n1 | inactive: 3.97%
44 | O=C(OC1CN2CCC1CC2)C12CC3CC(CC(C3)C1)C2 (stereo not given) | inactive: 13.9%
45 | Cc1c2c(nc3ccccc13)SC(C(Cl)Cl)C2 (stereo not given) | inactive: 0.923%
